Read-outs that look alike come from different tables or passages of the source.

The nature of data set [1]: Solid-state stability under accelerated degradation conditions (40 °C, 75% RH).
The nature of data set [2]: Intrinsic dissolution, rotating disk apparatus. Format: physicochemical. On the procedure:
Intrinsic dissolution tests were carried out in triplicate using a rotating disk dissolution apparatus. […] The attachments containing the disks were immersed into 500 mL of phosphate buffer, pH 6.8, medium preheated at 37.0 ± 0.5 °C with the metallic rod rotating at 100 rpm.

A short description of data set [3]: Thermal analysis (DSC and TG). Format: physicochemical. The protocol:
Thermogravimetric (TG) experiments were performed on a Shimadzu DTG-60 thermobalance, placing approximately 2.0 ± 0.2 mg of each sample in alumina pans and then heating at 10 °C min^–1 under a nitrogen flow (50 mL min^–1) from 25 to 600 °C. Differential scanning calorimetry (DSC) curves were obtained using a Shimadzu DSC-60 instrument. The samples (1.0 ± 0.2 mg) were placed in aluminum pans and heated at a constant rate of 10 °C min^–1 under a nitrogen flow (50 mL min^–1). According to TG data, the DSC measurements have been conducted until the degradation temperature of each compound. Shimadzu TA-60 software was employed in the data analysis.

A short description of data set [4]: Photostability in aqueous media (DTIC degradation / 2-AZA formation kinetics). To be noted: 5 mM solution, phosphate buffer pH 6.8, UV irradiation 5 h. Format: physicochemical. On the procedure: The mobile phase consisted of a mixture of 0.1% (v/v) aqueous formic acid solution (A) and acetonitrile (B), in a gradient elution mode (0.0–2.5 min: 0% B; 2.5–4.0 min: 0–6% B; 4.0–5.0 min: 6–0% B; and 5.0–7.0 min: 0% B), delivered at a flow rate of 0.8 mL min^–1. […] The method validation followed the ICH Q2 (R2) guideline.[31] The parameters selectivity, linearity, precision, accuracy, and limits of quantitation and detection were evaluated.
A triplicate of freshly prepared solutions at a concentration of 5 mM has been placed into clear glass vials and arranged at 30 cm from a black UV lamp (300 mm, 15 W) to be photoirradiated for 5 h.

The nature of data set [5]: Solid-state photodegradation test (black UV lamp chamber). The following applies: after 15 days in photostability chamber.

On to “Dacarbazine-Succinic Acid Cocrystal [DTIC-H2SUC]”, for which the “stability, % DTIC found” value turned out to be 99.7 ± 0.2% in data set [1] (freshly prepared (initial) solid sample); 99.3 ± 0.3% in data set [1] (solid, after 90 days at 40 °C and 75% RH); 98.7 ± 0.3% in data set [5]. Further, the “solubility pH 1.2” value (HCl solution pH 1.2, 37.0 ± 0.5 °C, 24 h) was 28.8 ± 0.2 mg mL^–1. Also, the “solubility pH 4.5” value (acetate buffer pH 4.5, 37.0 ± 0.5 °C, 24 h) was 10.2 ± 0.7 mg mL^–1. The “pH measured after solubility study” value is, setting by setting: (dissolution medium pH 1.2) 1.2; (dissolution medium pH 4.5) 4.4; (dissolution medium pH 6.8) 6.8. The “solubility pH 6.8” value (phosphate buffer pH 6.8, 37.0 ± 0.5 °C, 24 h) is given as 6.9 ± 0.3 mg mL^–1. In data set [2] (phosphate buffer pH 6.8), the “IDR compared with DTIC (in words)” value is “equivalent to those of DTIC”. For the same substance, the “IDR (intrinsic dissolution rate) pH 6.8” value in data set [2] (phosphate buffer pH 6.8, 37.0 ± 0.5 °C, 100 rpm) is given as 0.43 ± 0.03 mg cm^–2 min^–1. Besides, the “Tonset of DSC exothermic degradation peak” value in data set [3] amounted to 165.2 °C. Further, the “decomposition temperature (DSC exothermic degradation peak)” value in data set [3] is 169.7 °C. Moreover, the “TG: thermally stable up to / mass loss begins at” value in data set [3] (10 °C min^–1, nitrogen flow) was roughly 156 °C. The “Tonset of TG mass loss” value in data set [3] (10 °C min^–1, nitrogen flow) was 152.6 °C. In addition, the “kg, photogeneration rate constant for 2-AZA” value in data set [4] came out at 0.378 ± 0.05 mM h^–1. Also, in data set [5], the “stability, % 2-AZA found” value amounted to 0.8 ± 0.1%.

The values above are taken from PMC11220790 (Molecular Pharmaceutics, 2024).
